Legend:
Keap1 Kelch domain = Keap1 Kelch domain (Homo sapiens, UniProt Q14145); assay: SPR-based solution competition assay; assay type: binding
Keap1 = details: read-out: KD (ITC); ITC ref 38; cited from earlier work
Keap1-Nrf2 complex = details: cited from earlier work

Amino acid sequences for entries named in this document (tags omitted). Residues count along the entry.
UniProt Q14145, 321-609 limits assumed: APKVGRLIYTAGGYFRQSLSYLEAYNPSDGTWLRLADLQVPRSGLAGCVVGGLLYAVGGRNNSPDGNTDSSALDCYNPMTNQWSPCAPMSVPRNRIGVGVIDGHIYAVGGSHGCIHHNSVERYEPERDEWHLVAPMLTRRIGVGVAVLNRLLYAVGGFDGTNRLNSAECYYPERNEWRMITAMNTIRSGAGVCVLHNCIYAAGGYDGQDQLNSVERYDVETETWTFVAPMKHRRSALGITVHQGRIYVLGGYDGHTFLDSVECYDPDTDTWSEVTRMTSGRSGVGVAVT

CC(C)C[C@H](NC(=O)[C@H](Cc1ccccc1)NC(=O)[C@H](CCC(=O)O)NC(=O)CNC(=O)[C@@H](NC(=O)[C@H](CCC(=O)O)NC(=O)[C@H](CCC(=O)O)NC(=O)[C@@H](N)CC(=O)O)[C@@H](C)O)C(=O)O [H-8mer-OH]
Kd (Keap1 Kelch domain): > 1000 nM

LQLDEETGEFLPIQ
Kd (Keap1): 20 nM

LDEETGEFLP
displacement of Nrf2 from Keap1-Nrf2 complex (Keap1-Nrf2 complex): less effective

Source: PMC3218206 (Chemical biology & drug design, 2011)
